Assay results published in US6897199B2, “Pharmaceutically acceptable salts of phenoxazine and phenothiazine compounds” (Dr. Reddy's Laboratories Ltd., priority 2001, dated 2005).

Molecular target: T1, hPPARα (Homo sapiens, UniProt Q07869)
T1 sequence (Q07869 239-466 limits assumed): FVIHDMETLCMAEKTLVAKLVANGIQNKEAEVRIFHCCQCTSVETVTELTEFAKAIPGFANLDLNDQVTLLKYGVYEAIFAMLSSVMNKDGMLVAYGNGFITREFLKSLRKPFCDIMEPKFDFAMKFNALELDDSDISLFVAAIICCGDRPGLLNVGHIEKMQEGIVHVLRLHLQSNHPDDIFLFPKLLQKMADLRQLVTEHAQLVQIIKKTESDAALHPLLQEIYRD
Details: compound concentration 50 μM; luciferase activity, HEK-293 cells

| Compound | PPARα |
| --- | --- |
| CCO[C@@H](Cc1ccc(OCCN2c3ccccc3Oc3ccccc32)cc1)C(=O)O [Example 5, (−)-3-[4-[2-(Phenoxazin-10-yl)ethoxy]phenyl]-2-ethoxypropanoic acid pyrrolidine salt] | 4.3 |
| CCO[C@@H](Cc1ccc(OCCN2c3ccccc3Oc3ccccc32)cc1)C(=O)O [Example 2, (−)-Di 3-[4-[2-(Phenoxazin-10-yl)ethoxy]phenyl]-2-ethoxypropanoic acid Piperazine salt] | 4.0 |
| CCO[C@@H](Cc1ccc(OCCN2c3ccccc3Oc3ccccc32)cc1)C(=O)O [Example 7, (−)-3-[4-[2-(Phenoxazin-10-yl)ethoxy]phenyl]-2-ethoxypropanoic acid 1-phenyl ethyl amine salt] | 3.43 |
| CCOC(Cc1ccc(OCCN2c3ccccc3Oc3ccccc32)cc1)C(=O)O.c1c[nH]cn1 (single isomer, unassigned; (-)) [Example 1, (−)-3-[4-[2-(Phenoxazin-10-yl)ethoxy]phenyl]-2-ethoxypropanoic acid imidazole salt] | 4.5 |
| CCO[C@@H](Cc1ccc(OCCN2c3ccccc3Oc3ccccc32)cc1)C(=O)O [Example 9, (−)-3-[4-[2-(Phenoxazin-10-yl)ethoxy]phenyl]-2-ethoxypropanoic acid phenylalanine benzyl ester salt] | 4.2 |

Structures can show the parent of a compound that is named as a salt.
